In one assay the target is μ opioid receptor (Cavia porcellus, UniProt A0ACM8Q262). Nature of the assay: Receptor affinity study: binding to μ sites, 3H-DAGO, brain homogenate. The settings on record: read-out: OPIATE RECEPTORS BINDING mu Ki, guinea pig brain homogenate, 25° C., 40 min.
The next assay deals with kappa opioid receptor (Cavia porcellus, UniProt P41144). Nature of the assay: Receptor affinity study: binding to K (kappa) sites, tritiated ethylketocyclazocine, brain homogenate. The settings on record: read-out: OPIATE RECEPTORS BINDING kappa Ki, guinea pig brain homogenate, 100 nM DADLE and 100 nM DAGO, 25° C., 40 min.
Assay [1] is described as follows: Mouse tail-flick test (analgesic activity, subcutaneous). The settings on record: subcutaneous in isotonic saline, 30 min after dosing, activity = percent of mice doubling initial reaction time. (In general: Hot-plate and tail-flick tests time the reaction to a heat stimulus.)

By UniProt entry, the sequences of proteins in these tests, tags left out. Where a name states a change or a piece, a line headed by the entry shows the natural chain unless it says otherwise. Residues count along the entry.
UniProt A0ACM8Q262, 1-400: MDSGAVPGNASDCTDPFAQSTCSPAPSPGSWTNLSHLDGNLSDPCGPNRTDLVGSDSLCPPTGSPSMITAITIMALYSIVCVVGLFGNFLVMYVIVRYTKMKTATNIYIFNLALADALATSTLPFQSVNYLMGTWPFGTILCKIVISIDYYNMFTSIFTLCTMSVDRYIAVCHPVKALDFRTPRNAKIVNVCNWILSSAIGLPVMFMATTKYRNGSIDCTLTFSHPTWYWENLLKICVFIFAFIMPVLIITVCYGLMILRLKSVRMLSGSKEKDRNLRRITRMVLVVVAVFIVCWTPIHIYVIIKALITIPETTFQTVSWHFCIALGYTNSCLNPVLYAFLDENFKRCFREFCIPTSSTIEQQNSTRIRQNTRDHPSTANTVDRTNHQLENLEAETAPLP
UniProt P41144: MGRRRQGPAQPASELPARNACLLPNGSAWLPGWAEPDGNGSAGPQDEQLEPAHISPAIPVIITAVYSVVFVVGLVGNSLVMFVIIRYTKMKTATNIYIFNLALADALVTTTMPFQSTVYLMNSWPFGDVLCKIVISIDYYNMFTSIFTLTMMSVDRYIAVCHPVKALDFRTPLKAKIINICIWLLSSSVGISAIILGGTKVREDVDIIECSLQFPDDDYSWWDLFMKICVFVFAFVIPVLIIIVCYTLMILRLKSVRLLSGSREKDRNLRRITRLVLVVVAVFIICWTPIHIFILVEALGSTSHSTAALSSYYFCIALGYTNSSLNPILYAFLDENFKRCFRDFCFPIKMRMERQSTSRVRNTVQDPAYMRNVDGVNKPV

Molecules are shown by their SMILES.

As usually defined, the Ki is the dissociation constant of the complex between target and ligand, obtained from inhibition or displacement.

For `CN(C(=O)Cc1ccc([N+](=O)[O-])cc1)[C@H](CN1CCCC1)c1ccccc1` [listing 1 of 2 here], the Ki at μ opioid receptor turned out to be 0.1 µM; on kappa opioid receptor, 0.00129 µM.
On to `CN(C(=O)Cc1ccccc1[N+](=O)[O-])[C@H](CN1CCCC1)c1ccccc1`, for which the “MOUSE TAIL-FLICK ED50 SUBCUTANEOUS” value in assay [1] stood at 3.5 mg/kg. For the same compound, the Ki on μ opioid receptor is 1.22 µM; at kappa opioid receptor, 0.00356 µM.
As to `CN(C(=O)Cc1ccc(C(F)(F)F)cc1)[C@H](CN1CCCC1)c1ccccc1` [listing 1 of 2 here], the Ki at kappa opioid receptor stood at 0.0019 µM.
As to `CN(C)C[C@H](c1ccccc1)N(C)C(=O)Cc1ccccc1[N+](=O)[O-]`, in assay [1], the “MOUSE TAIL-FLICK ED50 SUBCUTANEOUS” value amounted to 5.0 mg/kg. Further, the Ki on μ opioid receptor was > 1 µM; on kappa opioid receptor it was 0.0145 µM.
`CN(C)C[C@H](c1ccccc1)N(C)C(=O)Cc1ccc(Cl)c(Cl)c1`: the “MOUSE TAIL-FLICK ED50 SUBCUTANEOUS” value in assay [1] is 0.1 mg/kg. Also, the results for the Ki on μ opioid receptor and at kappa opioid receptor were 0.518 µM and 0.00201 µM, respectively.
With `CN(C(=O)Cc1ccc([N+](=O)[O-])cc1)[C@H](CN1CCCC1)c1ccccc1` [listing 2 of 2 here], the “MOUSE TAIL-FLICK ED50 SUBCUTANEOUS” value in assay [1] amounted to 0.036 mg/kg.
In the case of `CN(C(=O)Cc1ccc(C(F)(F)F)cc1)[C@H](CN1CCCC1)c1ccccc1` [listing 2 of 2 here], the “MOUSE TAIL-FLICK ED50 SUBCUTANEOUS” value in assay [1] is 0.030 mg/kg. Besides, the Ki on μ opioid receptor came to 0.5 µM.
As to `CCN(C(=O)Cc1ccc(Cl)c(Cl)c1)[C@H](CN(C)C)c1ccccc1`, the “MOUSE TAIL-FLICK ED50 SUBCUTANEOUS” value in assay [1] worked out at 0.28 mg/kg. Besides, the figures for the Ki on μ opioid receptor and on kappa opioid receptor were 0.874 µM and 0.00479 µM, respectively.
For `CN(C(=O)Cc1ccc(Cl)c(Cl)c1)[C@H](CN1CCCC1)c1ccccc1`, in assay [1], the “MOUSE TAIL-FLICK ED50 SUBCUTANEOUS” value turned out to be 0.022 mg/kg. In addition, at μ opioid receptor, the Ki was 0.124 µM.
Regarding `CN(C(=O)Cc1cccc([N+](=O)[O-])c1)[C@H](CN1CCCC1)c1ccccc1`, the “MOUSE TAIL-FLICK ED50 SUBCUTANEOUS” value in assay [1] was 0.036 mg/kg. Further, the Ki was 0.194 µM on μ opioid receptor and 0.00049 µM on kappa opioid receptor.
Turning to `CN(C(=O)Cc1ccc(Cl)c(Cl)c1)[C@@H](Cc1ccccc1)CN1CCCC1`, at kappa opioid receptor, the Ki is > 0.1 µM.
As to `CN(C)C[C@H](c1ccccc1)N(C)C(=O)Cc1ccc([N+](=O)[O-])cc1`, the “MOUSE TAIL-FLICK ED50 SUBCUTANEOUS” value in assay [1] is 0.4 mg/kg. For the same compound, the Ki came out at 0.544 µM at μ opioid receptor and 0.00789 µM on kappa opioid receptor.
For `CN(C)C[C@H](c1ccccc1)N(C)C(=O)Cc1ccc(C(F)(F)F)cc1`, in that order: 0.39 mg/kg, > 1 µM and 0.0032 µM.
For the compound `CN(C)C[C@H](Cc1ccccc1)N(C)C(=O)Cc1ccc(Cl)c(Cl)c1`, the Ki at kappa opioid receptor was > 0.1 µM.
In the case of `CN(C)C[C@H](c1ccccc1)N(C)C(=O)Cc1cccc([N+](=O)[O-])c1`, the “MOUSE TAIL-FLICK ED50 SUBCUTANEOUS” value in assay [1] was 0.13 mg/kg. For the same compound, the Ki was 1.05 µM at μ opioid receptor and 0.00129 µM on kappa opioid receptor.
